Read-outs that look alike come from different tables or passages of the source.
What was measured:
[1] = biological target: GSK3b (GST-full length GSK3b) (Homo sapiens (Human), UniProt P49841); assay: GSK3b TR-FRET kinase assay; type: biochemical
[2] = biological target: GSK3α (GST-full length GSK3α) (Homo sapiens (Human), UniProt P49840); assay: GSK3α TR-FRET kinase assay; type: biochemical
[3] = read-out: GSK3-B TR-FRET BIOCHEMICAL (TR-FRET);, 1 nM GSK3b, 2 μM ATP, 30 minute preincubation, Table 16
[4] = read-out: GSK3-A TR-FRET BIOCHEMICAL (TR-FRET);, 1 nM GSK3α, 4 μM ATP, 30 minute preincubation, Table 16
[5] = read-out: GSK3-B TR-FRET BIOCHEMICAL (TR-FRET), IC50, 1 nM GSK3b, 2 μM ATP, 30 minute preincubation (Table 16)
[6] = read-out: GSK3-A TR-FRET BIOCHEMICAL (TR-FRET), IC50, 1 nM GSK3α, 4 μM ATP, 30 minute preincubation (Table 16)
[7] = read-out: GSK3-B TR-FRET BIOCHEMICAL (TR-FRET), GMean, IC50, 1 nM GSK3b, 2 μM ATP, 30 minute preincubation, geometric mean
[8] = read-out: GSK3-A TR-FRET BIOCHEMICAL (TR-FRET), GMean, IC50, 1 nM GSK3α, 4 μM ATP, 30 minute preincubation, geometric mean
[9] = read-out: GSK3-B (TR-FRET 1 mM ATP), GMean, IC50, 1 mM ATP, geometric mean
[10] = read-out: GSK3-A (TR-FRET 1 mM ATP), GMean, IC50, 1 mM ATP, geometric mean
[11] = read-out: GSK3-B TR-FRET BIOCHEMICAL (TR-FRET), IC50, 1 nM GSK3b, 2 μM ATP, 30 minute preincubation
[12] = read-out: GSK3-A TR-FRET BIOCHEMICAL (TR-FRET), IC50, 1 nM GSK3α, 4 μM ATP, 30 minute preincubation

Sequences of proteins named here, by UniProt entry; tags and fusion partners are left off.
UniProt P49841, whole entry: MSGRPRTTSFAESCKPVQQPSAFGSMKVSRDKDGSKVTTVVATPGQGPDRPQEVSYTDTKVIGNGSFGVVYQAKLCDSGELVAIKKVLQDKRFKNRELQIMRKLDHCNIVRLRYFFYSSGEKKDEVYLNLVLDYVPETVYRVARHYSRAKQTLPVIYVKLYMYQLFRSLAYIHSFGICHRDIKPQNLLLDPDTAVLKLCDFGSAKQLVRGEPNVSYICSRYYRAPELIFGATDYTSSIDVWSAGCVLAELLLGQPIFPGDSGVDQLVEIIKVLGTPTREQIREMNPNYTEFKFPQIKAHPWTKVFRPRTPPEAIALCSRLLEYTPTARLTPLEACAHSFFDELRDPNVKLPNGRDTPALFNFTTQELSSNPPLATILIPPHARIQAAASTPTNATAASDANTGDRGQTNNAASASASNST
UniProt P49840, whole entry: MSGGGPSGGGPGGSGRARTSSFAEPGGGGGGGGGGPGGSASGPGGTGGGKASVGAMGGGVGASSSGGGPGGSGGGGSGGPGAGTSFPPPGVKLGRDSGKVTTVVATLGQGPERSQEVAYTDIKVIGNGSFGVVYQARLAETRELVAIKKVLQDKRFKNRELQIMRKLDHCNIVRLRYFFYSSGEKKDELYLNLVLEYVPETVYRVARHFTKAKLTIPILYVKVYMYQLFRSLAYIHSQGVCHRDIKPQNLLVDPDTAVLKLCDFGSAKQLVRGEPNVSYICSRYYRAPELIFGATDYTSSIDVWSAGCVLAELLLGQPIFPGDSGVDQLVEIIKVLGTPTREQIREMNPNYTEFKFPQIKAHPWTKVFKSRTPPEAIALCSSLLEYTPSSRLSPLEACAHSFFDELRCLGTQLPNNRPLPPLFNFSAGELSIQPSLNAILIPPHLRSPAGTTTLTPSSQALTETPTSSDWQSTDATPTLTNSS

IC50 [1, 5] [nM]	IC50 [2, 6] [nM]	IC50 [2, 8] [nM]	Structure (SMILES)	also measured
			CC[C@]1(c2cccc(-c3ccnn3C(C)C)c2)C2=C(CC(C)(C)CC2=O)Nc2n[nH]cc21	IC50 [1, 3]: < 100 nM; IC50 [2, 4]: < 100 nM
1000 to 5000	100 to 1000		CC[C@]1(c2cccc(N(C)c3ccnnc3)c2)C2=C(CC(C)(C)CC2=O)Nc2n[nH]cc21	
< 100	< 100		CCCn1nccc1-c1cccc(C2(CC)C3=C(CC(C)(C)CC3=O)Nc3n[nH]cc32)c1 (centres unmarked)	
1000 to 5000	100 to 1000		CCC1(c2cccc(-c3ccnc(C(C)C)c3)c2)C2=C(CC(C)(C)CC2=O)Nc2n[nH]cc21 (centres unmarked)	
		1000 to 5000	CC[C@@]1(c2cccc(-c3cn(C)nc3C(C)C)c2)C2=C(CC(C)(C)NC2=O)Nc2n[nH]cc21	IC50 [1, 7]: > 5000 nM
			CC[C@]1(c2cccc(N(C)c3cccc(C)n3)c2)C2=C(CC(C)(C)CC2=O)Nc2n[nH]cc21	IC50 [1, 3]: 100 to 1000 nM; IC50 [2, 4]: < 100 nM
< 100	< 100		CC[C@]1(c2cccc(N(C)C(=O)c3cnn(C)c3)c2)C2=C(CC(C)(C)CC2=O)Nc2n[nH]cc21	
1000 to 5000	100 to 1000		CC[C@@]1(c2cccc(-c3cnn(C(C)C)c3F)c2)C2=C(CC(C)(C)NC2=O)Nc2n[nH]cc21	
		< 100	CC1(C)CC(=O)C2=C(C1)Nc1n[nH]c(C(F)(F)F)c1[C@]21CCc2c(F)cccc21	IC50 [1, 7]: < 100 nM
100 to 1000	< 100		CCC1(c2cccc(N(C)C(=O)c3ccn(C)n3)c2)C2=C(CC(C)(C)CC2=O)Nc2n[nH]cc21 (centres unmarked)	
		< 100	CC[C@]1(c2cccc(-c3ccnc(C)c3Cl)c2)C2=C(CC(C)(C)NC2=O)Nc2n[nH]cc21	IC50 [1, 9]: 1000 to 5000 nM; IC50 [1, 7]: < 100 nM; IC50 [2, 10]: 100 to 1000 nM
			CC[C@@]1(c2cccc(-c3c(F)cncc3OC)c2)C2=C(CN(Cc3ccccc3)C2=O)Nc2n[nH]cc21	IC50 [1, 9]: 1000 to 5000 nM; IC50 [1, 11]: < 100 nM; IC50 [2, 10]: 100 to 1000 nM; IC50 [2, 12]: < 100 nM
> 5000	1000 to 5000		CC[C@@]1(c2cccc(-c3cnn4cc(F)cc(F)c34)c2)C2=C(CC(C)(C)NC2=O)Nc2n[nH]cc21	
			CC[C@]1(c2cccc(-c3ccnc(C)c3)c2)C2=C(Nc3n[nH]cc31)[C@H]1CC[C@@H](C2)C1	IC50 [1, 3]: > 5000 nM; IC50 [2, 4]: 1000 to 5000 nM
			CC[C@]1(c2cccc(-c3ccnc(C)c3)c2)C2=C(C[C@H](C)NC2=O)Nc2n[nH]cc21	IC50 [1, 11]: > 5000 nM; IC50 [2, 12]: 1000 to 5000 nM
		1000 to 5000	CC[C@@]1(c2cccc(-c3ccnc(C)c3C)c2)C2=C(CC(C)(C)NC2=O)Nc2n[nH]cc21	IC50 [1, 7]: > 5000 nM
			CC[C@@]1(c2cccc(-c3ccnc(C(F)F)c3)c2)C2=C(CC(C)(C)CC2=O)Nc2n[nH]cc21	IC50 [1, 3]: > 5000 nM; IC50 [2, 4]: > 5000 nM
1000 to 5000	100 to 1000		CCC1(c2cccc(N3C[C@H](C)C[C@H](C)C3)c2)C2=C(CC(C)(C)CC2=O)Nc2n[nH]cc21 (some centres unmarked)	
100 to 1000	< 100		CC[C@@]1(c2cccc(N3CCCC[C@H]3C)c2)C2=C(CC(C)(C)CC2=O)Nc2n[nH]cc21	
			CC[C@]1(c2cccc(-c3ccnc(C)c3)c2)C2=C(CC(C)(C)NC2=O)Nc2n[nH]cc21	IC50 [1, 11]: > 5000 nM; IC50 [2, 12]: 100 to 1000 nM
		100 to 1000	CC(C)(C)Cc1[nH]nc2c1[C@]1(CCc3ccc(F)cc31)C1=C(CC(C)(C)CC1=O)N2	IC50 [1, 7]: < 100 nM
			CC[C@]1(c2cccc(CN(C)c3ccnc(C)c3)c2)C2=C(CC(C)(C)CC2=O)Nc2n[nH]cc21	IC50 [1, 3]: > 5000 nM; IC50 [2, 4]: > 5000 nM
		< 100	CC[C@]1(c2cccc(N3CCCC3)c2)C2=C(CC(C)(C)CC2=O)Nc2n[nH]cc21	IC50 [1, 7]: 100 to 1000 nM
		< 100	CC[C@@]1(c2cccc(N(C)C(C)=O)c2)C2=C(CC(C)(C)CC2=O)Nc2n[nH]cc21	IC50 [1, 7]: < 100 nM
< 100	< 100		CCC1(c2ccc(C)cc2)C2=C(CC(C)(C)CC2=O)Nc2n[nH]c(C(F)(F)F)c21 (centres unmarked)	
			CC[C@@]1(c2cccc(C)c2)C2=C(CC3(CCCC3)CC2=O)Nc2n[nH]cc21	IC50 [1, 7]: > 5000 nM
		100 to 1000	CC[C@]1(c2cccc(C(F)(F)F)c2)C2=C(CC(C)(C)CC2=O)Nc2n[nH]cc21	
		100 to 1000	CCC1(c2cccc(N3CCOCC3)c2)C2=C(CC(C)(C)CC2=O)Nc2n[nH]cc21 (centres unmarked) [Compound 810363]	
		100 to 1000	CC[C@]1(c2cccc(C(F)(F)F)c2)C2=C(CC(C)(C)CC2=O)Nc2n[nH]c(C)c21	
			CC(C)(C)Cc1[nH]nc2c1[C@@](C)(c1ccccc1)C1=C(CC(C)(C)NC1=O)N2	IC50 [1, 9]: > 5000 nM

Reference: US20250313563A1, “GLYCOGEN SYNTHASE KINASE 3 INHIBITORS AND USES THEREOF” (The Broad Institute, Inc., priority 2022, published 2025)
